Our source for the IC50 values is BindingDB's records for doi:10.1016/j.bmc.2009.07.075 (Northern Kentucky University, 2009).

Sequences of proteins named here, by UniProt entry; tags and fusion partners are left off. A change or cut given only in a name is not applied to a line headed by its entry.
UniProt P04191: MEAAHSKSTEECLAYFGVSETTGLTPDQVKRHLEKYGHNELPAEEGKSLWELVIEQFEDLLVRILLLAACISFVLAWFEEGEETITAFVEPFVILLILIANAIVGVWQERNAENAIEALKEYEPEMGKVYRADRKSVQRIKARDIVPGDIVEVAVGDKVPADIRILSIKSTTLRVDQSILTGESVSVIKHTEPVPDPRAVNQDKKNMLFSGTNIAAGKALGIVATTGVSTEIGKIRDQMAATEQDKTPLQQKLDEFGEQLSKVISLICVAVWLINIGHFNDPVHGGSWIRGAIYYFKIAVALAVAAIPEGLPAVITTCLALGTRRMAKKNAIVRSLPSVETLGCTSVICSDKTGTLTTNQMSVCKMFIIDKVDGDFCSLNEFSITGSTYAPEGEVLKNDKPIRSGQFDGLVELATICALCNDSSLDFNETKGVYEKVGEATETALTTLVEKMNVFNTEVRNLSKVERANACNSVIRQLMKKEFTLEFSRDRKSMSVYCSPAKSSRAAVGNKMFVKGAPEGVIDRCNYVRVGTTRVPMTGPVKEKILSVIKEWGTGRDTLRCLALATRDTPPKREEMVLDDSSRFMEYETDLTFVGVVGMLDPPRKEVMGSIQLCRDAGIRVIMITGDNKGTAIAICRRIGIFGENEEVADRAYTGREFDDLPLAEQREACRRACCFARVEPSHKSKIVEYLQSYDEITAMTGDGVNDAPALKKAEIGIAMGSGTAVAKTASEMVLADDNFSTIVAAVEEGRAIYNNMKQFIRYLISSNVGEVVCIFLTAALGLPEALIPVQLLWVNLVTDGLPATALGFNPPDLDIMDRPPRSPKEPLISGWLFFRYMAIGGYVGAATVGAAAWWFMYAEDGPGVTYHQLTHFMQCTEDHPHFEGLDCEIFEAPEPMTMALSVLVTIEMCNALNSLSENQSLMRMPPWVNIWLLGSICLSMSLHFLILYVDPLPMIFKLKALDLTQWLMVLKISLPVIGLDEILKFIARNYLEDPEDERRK

For orientation: IC50 means the concentration needed to halve the response being measured.

The target in the assay is Sarcoplasmic/endoplasmic reticulum calcium ATPase 1 (Oryctolagus cuniculus, UniProt P04191).

As for `O=[N+]([O-])c1ccc(Cc2cc(O)ccc2O)cc1` [hydroquinone derivative, 2b], the 50% inhibitory concentration (IC50) was 5.7 µM.
